# Data from PubChem BioAssay AID602405 (Broad Institute, 2012).
# This is a selection; strong and weak results do not stand in their true shares. Activity calls are given as the source filed them. No stated cut-off is given here; in the data, active means inhibition above about 16% (passing the limit was not always enough); inconclusive means no clear call, values can overlap the other calls; inactive means below that.
# Test system: UDP-N-acetylbacillosamine N-acetyltransferase PglD (Campylobacter jejuni)
# Test: C. jejuni PglD acetyltransferase inhibitors, primary screen, biochemical, DTNB colorimetric, single point (AID 602405)
# Conditions: purified PglD enzyme, DTNB colorimetric CoA detection; at 12.5 µM; active compounds read high
row,SMILES,inhibition
1,Clc1n[nH]nc1-c1nn[nH][15n]1,inactive: -0.282%
2,O=P1(N(CCCl)CCCl)NCCC(C(F)(F)F)O1 (configuration not stated),inactive: -1.52%
3,CC(C)(C)C(=O)NC(Sc1ncccn1)C(Cl)(Cl)Cl (configuration not stated),inactive: 0.698%
4,CN(CCCl)Cc1cc(Cl)c(NC2=NCCN2)c(Cl)c1,inactive: -0.432%
5,CCC1=CC2Cc3nc4ccc(Cl)cc4c(N)c3C(C1)C2 (configuration not stated),inactive: 2.88%
6,O=P1(Nc2ccccn2)COc2ccccc2OC1,inactive: -1.49%
7,CCOP(=O)(NC(=NC(C)c1ccccc1)NC(C)c1ccccc1)OCC (configuration not stated),inactive: -4.07%
8,CN(C(=O)Cc1ccc(Cl)c(Cl)c1)[C@@H]1CCCC[C@H]1N1CCCC1,inactive: 1.41%
9,CC(C)/C=N\N=C(\N)N[N+](=O)[O-],inactive: -1.25%
10,Cc1nn(-c2ccccc2)c2c1P(=O)(N1CCOCC1)N(C)C(c1ccccc1)=N2 (configuration not stated),inactive: -9.65%
11,Cc1ccc(C(=O)OC2CN3CCC2CC3)cc1 (configuration not stated),inactive: -3.44%
12,CC1CCC(C(C)C)C(OP(=O)(Nc2ccccn2)c2ccccc2)C1 (configuration not stated),inactive: 1.31%
13,NS(=O)(=O)c1cccc(NC(=O)COC(=O)C(O)(c2ccccc2)c2ccccc2)c1,inactive: 1.28%
14,O=P1(Nc2ccc(Br)cn2)COc2ccccc2OC1,inactive: -2.13%
15,Cc1ccc(OCC(=O)OC2CN3CCC2CC3)cc1 (configuration not stated),inactive: -0.784%
16,O=[As](O)(c1cccs1)c1cccs1,inactive: -1.65%
17,Nc1cccc([As](=O)(O)c2ccccc2)c1,inactive: 1.06%
18,O=P1(Nc2ncccn2)COc2ccccc2OC1,inactive: 1.59%
19,Cc1ccc(S(=O)(=O)N(CCCN)CCCc2c(C)nc(N)[nH]c2=O)cc1,inactive: 0.419%
20,Nc1ccccc1[As](=O)(O)c1ccccc1,inactive: -0.405%
21,CCOP1(=S)c2c(C)nn(CCC#N)c2N=C(c2ccccc2F)N1C (configuration not stated),inactive: 0.627%
22,O=P(Nc1nccs1)(c1ccccc1)c1nc2ccccc2s1 (configuration not stated),inactive: -2.4%
23,CN(C)C(=O)c1cc([N+](=O)[O-])cc2c1-c1c(cc([N+](=O)[O-])cc1[N+](=O)[O-])C2=O,inactive: 3.58%
24,O=[N+]([O-])c1ccc2c(c1)nnn2O,inactive: 8.69%
25,CN(C(=O)Cc1ccc(Cl)c(Cl)c1)[C@H]1CC[C@@]2(CCCO2)C[C@@H]1N1CCCC1,inactive: 0.594%
26,N#CCCN(C(=O)COC(=O)C(O)(c1ccccc1)c1ccccc1)c1ccc(F)cc1,inactive: 1.41%
27,CN(C(=O)Cc1ccccc1)[C@@H]1CC[C@]2(CCCO2)C[C@H]1N1CCCC1,inactive: 0.881%
